# From US20250064875A1, “PHARMACEUTICAL COMPOSITION FOR PREVENTING OR TREATING MUSCLE DISEASES” (KOSA BIO INC., priority 2021, published 2025)
# System: sarcopenia animal model
# Assay: Sarcopenia animal model, excised tissue weights
# Format: in vivo, mice
# Conditions: excised tissue weight, day 14; same model and doses
# Experimental: Specifically, male C57BL/6 mice (7 weeks old, Samtako Bio Korea, Korea) were acclimatized, and their body weight (g), lean body weight (g), fat mass (g), and body fat percentage (%) were measured using dual-energy X-ray absorptiometry (DXA). Considering these measurements, the mice were grouped into sets of seven, and sarcopenia was induced by administering 20 mg/kg of dexamethasone intraperitoneally once daily for 14 days (FIG. 13). Simultaneously with the dexamethasone treatment, 300 mg/kg of hot water extract of elderberry or 0.5 mg/kg of FL was administered orally once daily. A control group consisted of untreated 5 mice (normal mice) at day 0 of treatment. On days 7 and 14 of treatment, the mice were scanned using DXA to measure body weight, lean body weight, fat mass, and body fat percentage; the results are presented in FIG. 14 and Tables 2 and 3.
compound,measurement,value
"C[C@@H]1C[C@H]2[C@@H]3CCC4=CC(=O)C=C[C@]4(C)[C@@]3(F)[C@@H](O)C[C@]2(C)[C@@]1(O)C(=O)CO [Dexamethasone, dexamethasone, reference compound]",Liver,1.514 ± 0.134 g
